{"source": "PubChem BioAssay AID588405", "about": "(Sanford-Burnham Center for Chemical Genomics, 2011)", "note": "The entries are a selection whose mix differs from that of the whole data set. Activity calls are given as the source filed them.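 How the source made its calls: active means inhibition of at least 50% at 20 µM; inactive means the rest.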", "data": [{"assay": "Peg3 promoter-driven luciferase inhibitors, primary screen, cell-based, HeLa, luciferase luminescence (AID 588405)", "conditions": "HeLa PEG-Prom luciferase reporter, overnight, at 20 µM, stronger effect = higher value", "values": [{"smiles": "COc1ccc(C(=O)NCC2(N3CCCCC3)CCCCC2)c(OC)c1OC", "inhibition": "inactive: -0.77%"}, {"smiles": "O=C(NCC1(N2CCCCC2)CCCCC1)c1ccc(=O)[nH]c1", "inhibition": "inactive: 14.6%"}, {"smiles": "CCCCn1nnnc1C(c1cccs1)N1CCC(n2c(=O)[nH]c3ccccc32)CC1", "note": "(configuration not stated)", "inhibition": "active: 71.2%"}, {"smiles": "O=C(NCC1(N2CCCCC2)CCCCC1)c1cccs1", "inhibition": "inactive: 4.63%"}, {"smiles": "CCCCn1nnnc1C(CC)N1CCC(n2c(=O)[nH]c3ccccc32)CC1", "note": "(configuration not stated)", "inhibition": "inactive: 20.5%"}, {"smiles": "CSc1ccccc1C(=O)NCC1(N2CCCCC2)CCCCC1", "inhibition": "inactive: 11.6%"}, {"smiles": "Cc1cccc(NC2(C#N)CCN(Cc3ccccc3)CC2)c1", "inhibition": "inactive: 0.84%"}, {"smiles": "O=c1[nH]c2ccccc2n1C1CCN(C(c2ccccc2)c2nnnn2C2CCCCC2)CC1", "note": "(configuration not stated)", "inhibition": "inactive: 45.4%"}, {"smiles": "COc1cc(C(=O)NCC2(N(C)C)CCCCC2)ccc1OC(F)F", "inhibition": "inactive: -16%"}, {"smiles": "CCOC(=O)N1CCC(Nc2cccc(C)c2)CC1", "inhibition": "inactive: 16.5%"}, {"smiles": "O=c1[nH]c2ccccc2n1C1CCN(C(c2cccc3ccccc23)c2nnnn2C2CCCC2)CC1", "note": "(configuration not stated)", "inhibition": "active: 62.2%"}, {"smiles": "CC(C)(C)n1nnnc1C(c1ccccc1)N1CCC(n2c(=O)[nH]c3ccccc32)CC1", "note": "(configuration not stated)", "inhibition": "inactive: 15.4%"}, {"smiles": "O=C1CCN(Cc2ccccc2)CC1", "inhibition": "inactive: 8.19%"}, {"smiles": "CCOc1ccc(C)cc1CN(CCCl)CCCl", "inhibition": "inactive: 21.1%"}, {"smiles": "O=C(NCC1(N2CCCCC2)CCCCC1)c1ccc(F)cc1", "inhibition": "inactive: 19.3%"}, {"smiles": "CCCCOc1ccc(C(=O)NCC2(N3CCOCC3)CCCCC2)cc1", "inhibition": "inactive: -22.3%"}, {"smiles": "CCCCn1nnnc1C(c1cc2ccccc2o1)N1CCC(n2c(=O)[nH]c3ccccc32)CC1", "note": "(configuration not stated)", "inhibition": "active: 77.5%"}, {"smiles": "O=P1(N(CCCl)CCCl)SCCCS1", "inhibition": "inactive: 11.3%"}, {"smiles": "CCOC(=O)N1CCC(Nc2ccc(F)cc2)CC1", "inhibition": "inactive: -6.14%"}, {"smiles": "COc1ccc(NC2CCN(CCc3ccccc3)CC2)c(OC)c1", "inhibition": "inactive: 14.7%"}, {"smiles": "O=C(NCC1(N2CCCCC2)CCCCC1)c1cccc(C(F)(F)F)c1", "inhibition": "inactive: 16.6%"}, {"smiles": "O=C(NCC1(N2CCOCC2)CCCCC1)c1cc(=O)[nH]c2ccccc12", "inhibition": "inactive: 1.23%"}, {"smiles": "COc1cc(C(=O)NCC2(N3CCCCC3)CCCCC2)ccc1OC(F)F", "inhibition": "inactive: 12.6%"}, {"smiles": "CCCCn1nnnc1C(c1cccc2ccccc12)N1CCC(n2c(=O)[nH]c3ccccc32)CC1", "note": "(configuration not stated)", "inhibition": "active: 69.3%"}, {"smiles": "CC(C)c1ccc(C(=O)NCC2(N3CCOCC3)CCCCC2)cc1", "inhibition": "inactive: -12.6%"}, {"smiles": "COc1ccc(NC2CCN(C(=O)OC(C)(C)C)CC2)cc1", "inhibition": "inactive: -15.1%"}, {"smiles": "CN1CCN(CCOC(=O)C(O)(c2ccccc2)c2ccccc2)CC1", "inhibition": "inactive: 6.07%"}, {"smiles": "CC(C)(C)n1nnnc1C(c1ccccc1OC(F)(F)F)N1CCC(n2c(=O)[nH]c3ccccc32)CC1", "note": "(configuration not stated)", "inhibition": "inactive: 44.2%"}, {"smiles": "O=C(NCC1(N2CCCCC2)CCCCC1)c1ccc(OC(F)F)cc1", "inhibition": "inactive: 15.5%"}, {"smiles": "CCN1CCC(Nc2ccc(Cl)cc2)CC1", "inhibition": "inactive: 9.72%"}, {"smiles": "N#CC1(Nc2ccccc2)CCN(CCc2ccccc2)CC1", "inhibition": "inactive: -6.65%"}, {"smiles": "O=c1[nH]c2ccccc2n1C1CCN(C(c2ccccc2OC(F)(F)F)c2nnnn2C2CCCC2)CC1", "note": "(configuration not stated)", "inhibition": "inactive: 27.6%"}, {"smiles": "O=C(NCC1(N2CCCCC2)CCCCC1)c1cccc([N+](=O)[O-])c1", "inhibition": "inactive: 15.3%"}, {"smiles": "CSc1ccc(C(=O)NCC2(N3CCOCC3)CCCCC2)cc1", "inhibition": "inactive: -1.31%"}, {"smiles": "O=C(NCC1(N2CCCCC2)CCCCC1)c1cncc(Br)c1", "inhibition": "inactive: 11.5%"}, {"smiles": "CN1CCC(Nc2cccc(F)c2)CC1", "inhibition": "inactive: 11.1%"}, {"smiles": "COc1ccc(C(c2nnnn2C2CCCC2)N2CCC(n3c(=O)[nH]c4ccccc43)CC2)cc1", "note": "(configuration not stated)", "inhibition": "inactive: 16.9%"}, {"smiles": "Cc1ccc(C(=O)NCC2(N(C)C)CCCCC2)o1", "inhibition": "inactive: -5.17%"}, {"smiles": "CCCOc1ccc(C(=O)NCC2(N(C)C)CCCCC2)cc1OC", "inhibition": "inactive: 0.33%"}, {"smiles": "CCCCn1nnnc1C(c1ccccc1OC(F)(F)F)N1CCC(n2c(=O)[nH]c3ccccc32)CC1", "note": "(configuration not stated)", "inhibition": "inactive: 25.5%"}, {"smiles": "CC(C)c1ccc(NC2CCN(C(=O)OC(C)(C)C)CC2)cc1", "inhibition": "inactive: -233%"}, {"smiles": "COc1ccc(CN(CCCl)CCCl)cc1Cl", "inhibition": "inactive: 11.1%"}, {"smiles": "CN(C)c1cccc(C(=O)NCC2(N3CCCCC3)CCCCC2)c1", "inhibition": "inactive: -5.5%"}, {"smiles": "COc1cc(OC)c(C(=O)NCC2(N(C)C)CCCCC2)cc1OC", "inhibition": "inactive: 4.81%"}, {"smiles": "CCC(c1nnnn1C(C)(C)C)N1CCC(n2c(=O)[nH]c3ccccc32)CC1", "note": "(configuration not stated)", "inhibition": "inactive: 2.03%"}, {"smiles": "O=C(NCC1(N2CCOCC2)CCCCC1)c1cc(F)c(F)cc1Cl", "inhibition": "inactive: -7.72%"}, {"smiles": "CCCCn1nnnc1C(c1ccnc2ccccc12)N1CCC(n2c(=O)[nH]c3ccccc32)CC1", "note": "(configuration not stated)", "inhibition": "inactive: 10.7%"}]}]}
